# Laboratory results reported in article PMC7259601 (PLoS ONE, 2020).
# Sequences of proteins named here, by UniProt entry; tags and fusion partners are left off.
# UniProt Q8BW75, whole entry: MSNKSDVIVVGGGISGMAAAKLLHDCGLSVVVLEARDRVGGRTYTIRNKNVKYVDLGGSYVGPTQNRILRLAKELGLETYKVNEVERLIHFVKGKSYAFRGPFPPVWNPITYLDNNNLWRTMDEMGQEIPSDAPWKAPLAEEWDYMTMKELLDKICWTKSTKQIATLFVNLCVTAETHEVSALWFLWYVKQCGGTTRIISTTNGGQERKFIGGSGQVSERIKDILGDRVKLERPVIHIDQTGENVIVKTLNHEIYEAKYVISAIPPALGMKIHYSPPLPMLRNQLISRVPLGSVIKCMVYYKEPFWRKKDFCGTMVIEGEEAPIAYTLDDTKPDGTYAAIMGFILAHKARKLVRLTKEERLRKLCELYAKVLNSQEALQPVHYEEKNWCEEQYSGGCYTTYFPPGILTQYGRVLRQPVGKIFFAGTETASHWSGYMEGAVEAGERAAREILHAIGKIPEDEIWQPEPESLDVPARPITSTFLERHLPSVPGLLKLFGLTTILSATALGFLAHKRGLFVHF
# Biological target: MAO-B (Mus musculus, UniProt Q8BW75)
# Test: in vivo
# Details: po, read-out: ED50 potentiation of PEA-induced symptoms
structure (smiles),measurement,value
"C#CCN(C)[C@H](C)Cc1ccccc1 [SLG, selegiline]",ED50 at 25 mg/kg,8 mg/kg
